Results published in EP0354046A2, “Herbicidal method using bromoxynil” (MAY & BAKER LIMITED, priority 1988, dated 1990).

System: maize var. Irla
Assay: Glasshouse experiment 4, percentage phytotoxicity on crop after 11 days
Conditions: Compound (74 or 99) 0 g/ha, Bromoxynil 35 g/ha
Procedure: Agricultural surfactant ('Agral') was added to the spray dilutions to give 0.2%v/v concentration.
After spraying the pots were arranged in randomised blocks in a glasshouse and water as necessary. After 11 days the plants were assessed for percentage phytotoxicity (reduction in green area compared with unsprayed plants (0 = no effect 100 = complete destruction).
E = X + Y […] where E, X and Y are percentage phytotoxicity.
The ED values were then used to plot an isobole for each mixture according to the method of P.M.L. Tammes op cit.

For `N#Cc1cc(Br)c(O)c(Br)c1` [Bromoxynil, 3,5-dibromo-4-hydroxybenzonitrile], which “% crop phytotoxicity Maize (3-4 leaves)” value is on record?
Its value is 0%.
